The values that follow are results of earlier work, collected in patent publication US20260096996A1, “PHARMACEUTICAL COMPOSITIONS OF TRETINOIN AND METHODS OF PRODUCING SUCH COMPOSITIONS” (Douglas Pharmaceuticals Limited, priority 2022, published 2026).

The conditions of the data set: during 1 week of continuous therapy, on average.

For `CC1=C(/C=C/C(C)=C/C=C/C(C)=C/C(=O)O)C(C)(C)CCC1` [tretinoin, all-trans retinoic acid], the “plasma tretinoin concentrations relative to day 1 values” is listed as “one-third”.
